Values quoted from earlier work in patent publication US20260092919A1, “REAGENT FOR MEASURING TYROSINE KINASE ACTIVITY, AND USE THEREOF” (HILO CO. LTD., priority 2022, published 2026).

Sequences of proteins named here, by UniProt entry; tags and fusion partners are left off. Residues count along the entry.
UniProt P00533, 25-1210: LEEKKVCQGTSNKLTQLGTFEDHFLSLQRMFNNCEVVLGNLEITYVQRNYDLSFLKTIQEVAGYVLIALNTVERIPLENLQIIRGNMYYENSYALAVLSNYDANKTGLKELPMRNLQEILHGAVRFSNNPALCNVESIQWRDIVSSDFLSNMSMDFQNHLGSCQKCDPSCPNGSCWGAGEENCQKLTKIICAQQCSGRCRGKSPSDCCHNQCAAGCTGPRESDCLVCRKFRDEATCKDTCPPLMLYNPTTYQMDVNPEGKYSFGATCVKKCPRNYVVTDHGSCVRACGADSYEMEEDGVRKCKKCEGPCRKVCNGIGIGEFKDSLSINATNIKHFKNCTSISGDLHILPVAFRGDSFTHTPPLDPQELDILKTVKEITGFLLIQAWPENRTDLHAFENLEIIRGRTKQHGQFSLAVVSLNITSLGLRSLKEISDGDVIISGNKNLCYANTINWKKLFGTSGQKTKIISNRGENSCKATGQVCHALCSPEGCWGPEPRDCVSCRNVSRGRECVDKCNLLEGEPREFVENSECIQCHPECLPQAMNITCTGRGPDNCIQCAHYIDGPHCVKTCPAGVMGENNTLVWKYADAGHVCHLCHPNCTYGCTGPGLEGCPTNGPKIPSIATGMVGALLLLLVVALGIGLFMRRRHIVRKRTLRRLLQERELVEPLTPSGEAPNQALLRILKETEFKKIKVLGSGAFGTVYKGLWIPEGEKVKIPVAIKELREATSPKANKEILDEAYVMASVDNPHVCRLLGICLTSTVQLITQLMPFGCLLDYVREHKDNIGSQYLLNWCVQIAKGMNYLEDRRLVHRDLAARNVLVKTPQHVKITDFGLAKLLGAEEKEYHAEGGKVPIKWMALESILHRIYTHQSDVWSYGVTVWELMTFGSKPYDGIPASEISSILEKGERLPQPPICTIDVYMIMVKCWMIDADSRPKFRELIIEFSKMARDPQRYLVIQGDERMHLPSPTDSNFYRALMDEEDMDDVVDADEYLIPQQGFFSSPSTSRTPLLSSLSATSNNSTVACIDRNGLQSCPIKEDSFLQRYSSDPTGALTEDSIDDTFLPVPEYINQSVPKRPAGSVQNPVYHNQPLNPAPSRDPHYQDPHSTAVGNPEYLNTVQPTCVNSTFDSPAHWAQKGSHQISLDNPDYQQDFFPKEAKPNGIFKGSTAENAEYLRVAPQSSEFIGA

Target: EGFR (Homo sapiens, UniProt P00533)
Conditions: cited from earlier work

COc1cc2ncnc(Nc3cccc(Cl)c3)c2cc1OC [AG-1478]
IC50: 3 nM
